Assay results reported in article PMC11017388 (ACS Medicinal Chemistry Letters, 2024).
pIC50: −log10 of the molar value.

Amino acid sequences for entries named in this document (tags omitted). Residues count along the entry.
UniProt P03952, 391-638 limits assumed: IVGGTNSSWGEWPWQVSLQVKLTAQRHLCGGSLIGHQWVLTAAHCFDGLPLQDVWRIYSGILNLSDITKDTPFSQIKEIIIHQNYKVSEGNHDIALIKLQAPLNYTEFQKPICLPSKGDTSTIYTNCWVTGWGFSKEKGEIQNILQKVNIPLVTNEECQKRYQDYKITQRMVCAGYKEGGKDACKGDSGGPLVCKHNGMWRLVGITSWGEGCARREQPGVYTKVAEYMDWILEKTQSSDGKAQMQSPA
UniProt P03952, 20-390 partner limits assumed: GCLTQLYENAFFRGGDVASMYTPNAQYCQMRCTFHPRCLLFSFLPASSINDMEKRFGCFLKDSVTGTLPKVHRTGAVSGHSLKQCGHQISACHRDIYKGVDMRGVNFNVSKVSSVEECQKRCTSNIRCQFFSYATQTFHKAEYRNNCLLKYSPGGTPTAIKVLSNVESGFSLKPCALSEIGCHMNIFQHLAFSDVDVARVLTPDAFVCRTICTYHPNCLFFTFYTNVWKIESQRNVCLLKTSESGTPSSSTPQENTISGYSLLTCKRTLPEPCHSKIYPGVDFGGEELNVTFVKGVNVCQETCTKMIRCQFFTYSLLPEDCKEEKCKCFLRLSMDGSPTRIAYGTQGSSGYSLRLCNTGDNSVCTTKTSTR

Assays:
PKa [1] = biological target: T1, PKa (Homo sapiens, UniProt P03952); assay: Compound dissociation assay (jump dilution); settings: 62.5-fold dilution after 10 min preincubation; monitored over 600 s with fluorogenic substrate
PKa [2] = biological target: T1, PKa; settings: read-out: PKa IC50; reversible PKa inhibitor; cited from earlier work

Inhibitor dissociation from PKa (PKa [1]): slow dissociation
Structure (SMILES): N=C(N)N1CCC(NC(=O)[C@@H](CC(=O)[C@@H](CC2CCCCC2)NCC(=O)O)Cc2ccccc2)CC1 (single isomer, unassigned)
pIC50 (PKa [2]): 8.22 to 8.40
